Test [1] concerns ERK. Nature of the test: p-ERK levels in primary hepatocytes (FIG. 21A). Type of test: cell-based, mouse. The settings on record: primary hepatocytes treated overnight. From the text:
(§1) Subsequently, cells were lysed and protein extracts were immunoblotted with the indicated antibodies. […] Quantitative PCR (qPCR) of TFEB target genes in primary hepatocytes from control (flox/flox) and Tcfeb−/− (flox/flox; alb-Cre) mice. […] The expression levels are shown as % increased expression of the treated versus the corresponding untreated samples. Values represent means±s.d. of three independent hepatocyte preparations (three mice/genotype). Student's t-test (two tailed) *P-value ≦0.05.

Test [2] relates to TFEB target genes. Nature of the test: qPCR of TFEB target genes in primary hepatocytes (FIG. 21B, C). Format: cell-based, mouse. The settings on record: hepatocytes from control mice (Tcfebflox/flox).
From the text: as §1
A general note: Quantitative PCR measures a nucleic acid by following its amplification.

For `CCN(CC)CCCC(C)Nc1ccnc2cc(Cl)ccc12` (centres unmarked) [chloroquine], the “levels of p-ERK” value in test [1] is given as “unaffected”. Besides, the “expression of TFEB target genes” value in test [2] is listed as “upregulated”.

The values above are taken from patent US20140038920A1, “TFEB PHOSPHORYLATION INHIBITORS AND USES THEREOF” (FONDAZIONE TELETHON, priority 2011, published 2014).
